For 1 molecule, IC50 results are on record in ChEMBL document CHEMBL1134673, “Modeling of poly(ADP-ribose)polymerase (PARP) inhibitors. Docking of ligands and quantitative structure-activity relationship analysis” (J Med Chem, 2001).

Sequences of proteins named here, by UniProt entry; tags and fusion partners are left off.
UniProt P09874, whole entry: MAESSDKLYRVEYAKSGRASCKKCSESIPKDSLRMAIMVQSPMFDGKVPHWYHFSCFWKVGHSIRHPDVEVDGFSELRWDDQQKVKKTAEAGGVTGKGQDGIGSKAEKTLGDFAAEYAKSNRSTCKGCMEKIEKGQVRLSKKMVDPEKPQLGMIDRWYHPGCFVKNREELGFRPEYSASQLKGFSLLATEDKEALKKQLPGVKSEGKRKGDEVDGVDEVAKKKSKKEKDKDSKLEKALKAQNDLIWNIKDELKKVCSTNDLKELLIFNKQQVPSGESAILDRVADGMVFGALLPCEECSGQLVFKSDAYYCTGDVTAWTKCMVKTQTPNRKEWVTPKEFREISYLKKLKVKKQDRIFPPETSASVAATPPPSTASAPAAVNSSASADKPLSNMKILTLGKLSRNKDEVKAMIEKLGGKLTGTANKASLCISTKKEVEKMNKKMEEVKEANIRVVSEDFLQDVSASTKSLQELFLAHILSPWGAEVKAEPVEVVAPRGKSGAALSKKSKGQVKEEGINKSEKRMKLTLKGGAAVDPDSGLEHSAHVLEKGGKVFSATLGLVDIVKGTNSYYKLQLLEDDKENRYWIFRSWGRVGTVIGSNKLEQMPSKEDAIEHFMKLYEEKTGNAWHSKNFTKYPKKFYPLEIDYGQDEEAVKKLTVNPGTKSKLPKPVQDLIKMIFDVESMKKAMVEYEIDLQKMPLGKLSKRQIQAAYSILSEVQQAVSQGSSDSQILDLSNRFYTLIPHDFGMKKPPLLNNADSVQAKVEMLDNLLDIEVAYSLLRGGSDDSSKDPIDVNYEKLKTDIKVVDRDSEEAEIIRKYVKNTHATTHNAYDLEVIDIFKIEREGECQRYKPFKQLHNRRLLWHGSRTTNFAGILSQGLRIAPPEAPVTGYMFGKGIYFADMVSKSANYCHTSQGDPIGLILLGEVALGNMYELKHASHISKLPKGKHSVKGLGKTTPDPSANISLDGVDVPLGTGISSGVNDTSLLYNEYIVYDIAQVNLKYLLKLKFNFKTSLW

The assay deals with Poly [ADP-ribose] polymerase 1 (Homo sapiens, UniProt P09874).

For `Cc1nc2c(C(N)=O)cccc2[nH]1`, the IC50 came to 1000 nM.
